In this assay the target is T1, Protein deacetylase HDAC6 (Homo sapiens, UniProt Q9UBN7).
T1 sequence (Q9UBN7 whole entry): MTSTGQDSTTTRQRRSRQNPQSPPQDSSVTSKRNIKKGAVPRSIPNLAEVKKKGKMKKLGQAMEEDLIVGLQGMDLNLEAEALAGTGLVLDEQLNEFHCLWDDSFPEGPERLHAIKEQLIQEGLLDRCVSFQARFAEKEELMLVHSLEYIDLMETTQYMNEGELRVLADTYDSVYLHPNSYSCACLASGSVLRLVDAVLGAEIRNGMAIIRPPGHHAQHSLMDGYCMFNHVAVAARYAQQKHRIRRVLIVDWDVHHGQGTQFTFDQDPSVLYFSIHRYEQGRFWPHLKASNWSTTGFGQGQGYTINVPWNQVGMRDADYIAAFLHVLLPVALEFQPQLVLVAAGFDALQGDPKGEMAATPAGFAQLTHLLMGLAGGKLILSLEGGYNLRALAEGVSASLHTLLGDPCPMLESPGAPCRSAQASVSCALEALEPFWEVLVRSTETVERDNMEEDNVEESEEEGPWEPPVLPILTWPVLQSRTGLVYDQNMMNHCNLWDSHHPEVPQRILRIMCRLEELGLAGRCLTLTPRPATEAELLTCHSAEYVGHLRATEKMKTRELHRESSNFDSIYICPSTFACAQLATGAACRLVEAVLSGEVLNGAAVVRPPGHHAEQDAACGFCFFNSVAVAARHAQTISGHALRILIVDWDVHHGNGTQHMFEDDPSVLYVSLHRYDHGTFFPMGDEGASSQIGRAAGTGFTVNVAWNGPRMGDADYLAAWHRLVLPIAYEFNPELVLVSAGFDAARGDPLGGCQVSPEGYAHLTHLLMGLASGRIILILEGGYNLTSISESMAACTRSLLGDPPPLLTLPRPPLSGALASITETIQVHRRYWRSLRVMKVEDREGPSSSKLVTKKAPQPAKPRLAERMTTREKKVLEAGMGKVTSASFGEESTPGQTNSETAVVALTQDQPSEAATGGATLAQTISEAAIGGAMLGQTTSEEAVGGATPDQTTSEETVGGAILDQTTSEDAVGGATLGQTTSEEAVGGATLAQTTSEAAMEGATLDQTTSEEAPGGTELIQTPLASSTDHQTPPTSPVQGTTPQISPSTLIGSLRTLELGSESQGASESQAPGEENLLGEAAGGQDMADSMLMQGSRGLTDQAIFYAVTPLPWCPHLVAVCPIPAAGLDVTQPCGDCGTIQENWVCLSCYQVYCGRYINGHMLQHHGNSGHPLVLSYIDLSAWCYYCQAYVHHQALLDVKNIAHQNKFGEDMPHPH
Put plainly: Inhibition of recombinant HDAC6.

`CC(=O)Nc1ccc(C(=O)Nc2cc(-c3cccs3)ccc2N)cc1`: the IC50 was greater than 20 µM.
